These are literature values, as cited in patent US5840770A, “Method of killing tumor cells” (Hill Medical Corporation, priority 1997, dated 1998).

The test system of the series is colon and kidney cancer and malignant melanoma. The note with it: cited from earlier work.

With IL-2: produced by helper T cells, where the note is “amounts most helpful in dealing with the tumor”, the toxicity result is on record as “toxic in the amounts most helpful in dealing with the tumor”. Also, the toxic effects result (human, in vivo) was “malaise, fever, nausea or vomiting, diarrhea and anemia”. Besides, the “patients showing at least some response” value (lymphocytes activated in vitro by IL-2 plus additional IL-2) is listed as “About 20 % of the patients”.
